These results are taken from patent US20060079453A1, “Hla binding peptides and their uses” (priority 2002, published 2006).

The term IC50 denotes the concentration at which inhibition is half-maximal. A low value points to greater potency.

Common to all, as to assay: biochemical
Common to all, as to assay type: binding

The target of test [1] is HLA-B*4501 (Homo sapiens, UniProt P01889, A329T/A65T/A93T/A95T/C349S/D138N/D201E/D98Y/E176V/E187L/E204Q/E69K/H137Y/K202T/L119W/N87E/Q56L/Q94N/R155S/R180D/S121R/S35A/S48T/V127L/V306I/V36M/W191S/Y140L/Y33H/Y91S).
Test [2] deals with HLA-B*4403 (Homo sapiens, UniProt P01889, A223V/A65T/A93T/A95T/D201E/D98Y/E176V/E187L/E204Q/E69K/G107R/H137Y/K202T/L105A/L119I/N104T/N87E/Q56L/Q94N/R106L/R155S/R180L/S101N/S121R/S35A/S48T/T118I/V36M/W191S/Y140D/Y91S).
In test [3] the target is HLA-B*4001 (Homo sapiens, UniProt P01889, A65T/A93T/A95T/D138N/D98Y/E176V/E69K/N87E/Q56L/Q94N/R180L/S121R/S35A/S48T/T167S/V36M/W171L/Y33H/Y91S).
The target in test [4] is HLA-B*1801 (Homo sapiens, UniProt P01889, A329T/A93T/A95T/C349S/D201E/D54G/D98Y/E176V/E187T/E204Q/E69T/K202T/Q94N/R155S/R180L/S121R/V306I/Y140S/Y195H/Y33H/Y91S).
Test [5] deals with HLA-B*4002 (Homo sapiens, UniProt P01889, A65T/A93T/A95T/D138N/D201E/D98Y/E176V/E204Q/E69K/K202T/N87E/Q56L/Q94N/R180L/S48T/Y33H/Y91S).
Test [6] has as its target HLA-B*4402 (Homo sapiens, UniProt P01889, A223V/A65T/A93T/A95T/D201E/D98Y/E176V/E187L/E204Q/E69K/G107R/H137Y/K202T/L105A/L119I/N104T/N87E/Q56L/Q94N/R106L/R155S/R180D/S101N/S121R/S35A/S48T/T118I/V36M/W191S/Y140D/Y91S).

As for `CC(C)C[C@H](NC(=O)[C@H](CC(C)C)NC(=O)[C@H](CC(C)C)NC(=O)[C@H](Cc1ccccc1)NC(=O)[C@H](Cc1c[nH]cn1)NC(=O)[C@@H](NC(=O)[C@H](CC(C)C)NC(=O)[C@H](CCC(=O)O)NC(=O)[C@H](C)N)C(C)C)C(=O)O`, the IC50 in test [1] was found to be 141 nM; in test [2], 0.94 nM; in test [3] it was 25 nM; in test [4], 160 nM; in test [5], 3.1 nM.

`CC(C)C[C@H](NC(=O)[C@@H]1CCCN1C(=O)[C@H](CO)NC(=O)[C@H](C)NC(=O)[C@H](CCCNC(=N)N)NC(=O)[C@H](CCC(N)=O)NC(=O)[C@H](CCC(=O)O)NC(=O)[C@H](C)N)C(=O)O`: the concentration for half-maximal inhibition (IC50) stood at 120 nM in test [1]; 0.38 nM in test [2]; 73 nM in test [3]; 16 nM in test [4]; 13 nM in test [5].

Turning to `C[C@H](NC(=O)[C@H](Cc1c[nH]cn1)NC(=O)[C@H](Cc1ccc(O)cc1)NC(=O)[C@H](CCC(=O)O)NC(=O)[C@@H](NC(=O)[C@H](CCC(=O)O)NC(=O)[C@@H](N)CC(=O)O)[C@@H](C)O)C(=O)N[C@@H](CC(=O)O)C(=O)NCC(=O)NCC(=O)O`, the IC50 amounted to 269 nM in test [2], 613 nM in test [4], 16800 nM in test [5] and 3890 nM in test [6].

`CC(C)C[C@H](NC(=O)[C@@H]1CCCN1C(=O)[C@H](CO)NC(=O)[C@H](CCCNC(=N)N)NC(=O)[C@@H]1CCCN1C(=O)[C@H](C)NC(=O)[C@H](CCC(=O)O)NC(=O)[C@H](CCC(=O)O)NC(=O)[C@@H](N)CCC(=O)O)C(=O)O`: the IC50 is 307 nM in test [1], 362 nM in test [2], 4490 nM in test [3] and 902 nM in test [4].

In the case of `CSCC[C@H](NC(=O)[C@H](CO)NC(=O)[C@H](CCC(=O)O)NC(=O)[C@@H](N)Cc1ccccc1)C(=O)N1CCC[C@H]1C(=O)N[C@@H](CC(N)=O)C(=O)N1CCC[C@H]1C(=O)N[C@@H](CCC(=O)O)C(=O)NCC(=O)N[C@@H](CCCNC(=N)N)C(=O)N[C@@H](Cc1ccc(O)cc1)C(=O)O`, the concentration for half-maximal inhibition (IC50) is 1390 nM in test [1] and 70 nM in test [2].

For the molecule `CC[C@H](C)[C@H](NC(=O)[C@H](CCC(N)=O)NC(=O)[C@H](CC(C)C)NC(=O)[C@@H](NC(=O)[C@H](Cc1ccccc1)NC(=O)[C@H](Cc1ccc(O)cc1)NC(=O)[C@H](CCC(=O)O)NC(=O)CN)[C@@H](C)O)C(=O)O`, the 50% inhibitory concentration (IC50) in test [2] turned out to be 1 nM; in test [4] it was 7770 nM; in test [5] it was 60 nM; in test [6], 3510 nM.

As for `CC[C@H](C)[C@H](N)C(=O)N[C@@H](CCC(=O)O)C(=O)NCC(=O)N[C@@H](CC(=O)O)C(=O)N[C@@H](CS)C(=O)N[C@@H](C)C(=O)N1CCC[C@H]1C(=O)N[C@@H](CCC(=O)O)C(=O)N[C@@H](CCC(=O)O)C(=O)N[C@@H](CCCCN)C(=O)N[C@H](C(=O)O)[C@@H](C)CC`, the half-maximal inhibitory concentration (IC50) in test [1] stood at 183 nM; in test [2] it was 486 nM; in test [4], 844 nM; in test [6], 2630 nM.

For `CSCC[C@H](NC(=O)[C@H](CC(=O)O)NC(=O)[C@H](CC(=O)O)NC(=O)[C@H](CC(=O)O)NC(=O)[C@H](CCC(=O)O)NC(=O)[C@@H](N)CC(C)C)C(=O)NCC(=O)N[C@@H](CC(=O)O)C(=O)N[C@@H](CC(C)C)C(=O)O`, the 50% inhibitory concentration (IC50) was found to be 900 nM in test [2], 556 nM in test [3] and 191 nM in test [4].

`CC(C)[C@H](NC(=O)[C@H](CCCNC(=N)N)NC(=O)[C@H](Cc1ccccc1)NC(=O)[C@H](CCC(N)=O)NC(=O)CNC(=O)[C@@H](NC(=O)[C@H](C)NC(=O)[C@H](CCC(=O)O)NC(=O)[C@H](CCC(=O)O)NC(=O)[C@@H](N)CC(N)=O)[C@@H](C)O)C(=O)O`: the IC50 in test [1] was found to be 405 nM; in test [2] it was 471 nM; in test [4] it was 998 nM.

Consider `CC(C)C[C@H](NC(=O)[C@H](Cc1ccc(O)cc1)NC(=O)[C@H](CCC(=O)O)NC(=O)[C@@H]1CCCN1)C(=O)N[C@H](C(=O)N1CCC[C@H]1C(=O)N[C@@H](CCC(N)=O)C(=O)NCC(=O)NCC(=O)O)[C@@H](C)O`, for which the concentration for half-maximal inhibition (IC50) is 284 nM in test [2], 1460 nM in test [4], 13900 nM in test [5] and 6530 nM in test [6].

As for `CC[C@H](C)[C@H](NC(=O)[C@H](CC(N)=O)NC(=O)[C@@H]1CCCN1C(=O)[C@@H](NC(=O)[C@H](Cc1ccccc1)NC(=O)[C@H](CC(C)C)NC(=O)[C@H](CCC(=O)O)NC(=O)[C@@H](N)CCC(N)=O)[C@@H](C)CC)C(=O)N[C@H](C(=O)N[C@H](C(=O)O)C(C)C)[C@@H](C)O`, the 50% inhibitory concentration (IC50) in test [1] turned out to be 14 nM; in test [2], 2.6 nM; in test [3], 121 nM; in test [4] it was 81 nM; in test [5], 27 nM.

Consider `CC(C)C[C@H](NC(=O)[C@H](CCC(=O)O)NC(=O)[C@H](CC(C)C)NC(=O)[C@H](C)NC(=O)[C@H](CCC(=O)O)NC(=O)[C@H](CC(N)=O)NC(=O)[C@H](CC(C)C)NC(=O)[C@H](CCC(=O)O)NC(=O)[C@@H](N)CCCNC(=N)N)C(=O)O`, for which the 50% inhibitory concentration (IC50) in test [2] turned out to be 1.1 nM; in test [3], 15 nM; in test [4] it was 3000 nM; in test [5] it was 30 nM.

For the molecule `CC(C)C[C@H](NC(=O)[C@H](CCC(N)=O)NC(=O)[C@H](CC(C)C)NC(=O)[C@H](CCC(=O)O)NC(=O)[C@@H](N)CCCNC(=N)N)C(=O)N[C@@H](CCCNC(=N)N)C(=O)N[C@@H](CO)C(=O)N[C@@H](CC(C)C)C(=O)N[C@H](C(=O)O)[C@@H](C)O`, the IC50 in test [2] came to 0.2 nM; in test [4] it was 638 nM; in test [5], 13 nM; in test [6], 465 nM.

As for `CC[C@H](C)[C@H](NC(=O)[C@H](CCC(=O)O)NC(=O)[C@@H](NC(=O)[C@H](CC(C)C)NC(=O)[C@H](CO)NC(=O)[C@H](CCCNC(=N)N)NC(=O)[C@H](CC(C)C)NC(=O)[C@H](CCC(N)=O)NC(=O)[C@H](CC(C)C)NC(=O)[C@H](CCC(=O)O)NC(=O)[C@@H](N)CCCNC(=N)N)[C@@H](C)O)C(=O)O`, the IC50 stood at 269 nM in test [1], 0.99 nM in test [2], 2.8 nM in test [3] and 3.7 nM in test [5].

On to `CC(C)C[C@H](NC(=O)[C@@H]1CCCN1C(=O)[C@H](CO)NC(=O)[C@H](CCCNC(=N)N)NC(=O)[C@@H]1CCCN1C(=O)[C@H](C)NC(=O)[C@H](CCC(=O)O)NC(=O)[C@H](CCC(=O)O)NC(=O)[C@H](CCC(=O)O)NC(=O)[C@@H](N)CO)C(=O)O`, for which the 50% inhibitory concentration (IC50) in test [1] was 84 nM; in test [2], 8.4 nM; in test [4] it was 151 nM; in test [6], 37 nM.

`CC(C)C[C@H](NC(=O)[C@@H]1CCCN1C(=O)[C@H](CO)NC(=O)[C@H](CCCNC(=N)N)NC(=O)[C@@H]1CCCN1C(=O)[C@H](C)NC(=O)[C@H](CCC(=O)O)NC(=O)[C@H](CCC(=O)O)NC(=O)[C@H](CCC(=O)O)NC(=O)[C@@H](N)CO)C(=O)N[C@@H](C)C(=O)O`: the IC50 in test [2] is 158 nM; in test [4], 1320 nM; in test [5] it was 5110 nM; in test [6], 8550 nM.

As for `CC(C)C[C@H](NC(=O)[C@H](CCC(=O)O)NC(=O)[C@@H](N)[C@@H](C)O)C(=O)N[C@H](C(=O)N[C@@H](CCC(=O)O)C(=O)N1CCC[C@H]1C(=O)N[C@@H](CC(C)C)C(=O)N[C@H](C(=O)N1CCC[C@H]1C(=O)N[C@@H](CO)C(=O)NCC(=O)O)[C@@H](C)O)C(C)C`, the half-maximal inhibitory concentration (IC50) in test [1] was 14100 nM; in test [2], 269 nM; in test [3], 2980 nM; in test [4] it was 601 nM.

Turning to `CC(C)C[C@H](NC(=O)[C@@H](NC(=O)[C@H](CCCNC(=N)N)NC(=O)[C@H](CS)NC(=O)[C@H](CCC(=O)O)NC(=O)[C@H](CCC(=O)O)NC(=O)[C@@H](N)C(C)C)C(C)C)C(=O)N[C@@H](CCC(N)=O)C(=O)NCC(=O)O`, the figures for the 50% inhibitory concentration (IC50) in test [2], in test [3] and in test [5] were 305 nM, 8950 nM and 7620 nM, respectively.

Take `CC(C)C[C@H](NC(=O)[C@H](CC(C)C)NC(=O)[C@H](Cc1ccccc1)NC(=O)[C@H](Cc1c[nH]cn1)NC(=O)[C@@H](NC(=O)[C@H](CC(C)C)NC(=O)[C@H](CCC(=O)O)NC(=O)[C@@H](N)C(C)C)C(C)C)C(=O)O`: the 50% inhibitory concentration (IC50) in test [1] worked out at 2430 nM; in test [2] it was 1.2 nM; in test [4], 5 nM; in test [5], 31 nM.

`CC(C)C[C@H](NC(=O)[C@@H]1CCCN1C(=O)[C@H](CCC(=O)O)NC(=O)[C@@H](N)C(C)C)C(=O)N[C@H](C(=O)N1CCC[C@H]1C(=O)N[C@@H](CO)C(=O)NCC(=O)N[C@@H](C)C(=O)O)[C@@H](C)O`: the values for the IC50 in test [2], in test [4] and in test [6] were 191 nM, 7320 nM and 8520 nM, respectively.
